# Vapor pressure values, as collected for the OPERA models

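The OPERA project collected these measurements from public sources as training and test data for property models. A listed value is a point estimate from one report or more. Method and conditions are not stated for these values. A value may pool stereoisomers or salt forms, and the file does not say which form was measured. Some entries may be limits or estimates that an upstream database listed as plain numbers.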

Vapor pressures (log10 mmHg) refer to near room temperature, 15 to 30 °C; higher is more volatile.
"via" names the databases from which the curators took the value.

C=CC(=O)OCCOCCOC(C)OCC(COC(C)OCCOCCOC(=O)C=C)(COC(C)OCCOCCOC(=O)C=C)NC(=O)COc1ccc2sc3ccccc3c(=O)c2c1 (configuration not stated) [Omnipol 3TX] has log VP -7.998 (log10 mmHg) (via eChemPortal).
CC(=O)OC(C)(C)Cc1ccccc1 [Dimethylbenzylcarbinyl acetate] has log VP -1.754 (log10 mmHg) (via eChemPortal).
CC1=NN(c2ccccc2)C(=O)C1 [1-Phenyl-3-methyl-5-pyrazolone] has log VP -2 (log10 mmHg) (via PubChem, eChemPortal).
Cc1cc(Cc2cc(C)cc(C3(C)CCCCC3)c2O)c(O)c(C2(C)CCCCC2)c1 [2,2'-Methanediylbis[4-methyl-6-(1-methylcyclohexyl)phenol]] has log VP -8.187 (log10 mmHg) (via eChemPortal).
CCCSc1nc(Cl)c([N+](=O)[O-])c(Cl)n1 [4,6-Dichloro-5-nitro-2-(propylsulfanyl)pyrimidine] has log VP -4.426 (log10 mmHg) (via eChemPortal).
Cc1ccc(C(=O)O)c(O)c1 [m-Cresotic acid] has log VP -4.289 (log10 mmHg) (via eChemPortal).
C=C(C)CCOC(C)=O [3-Buten-1-ol, 3-methyl-, 1-acetate] has log VP 0.4 (log10 mmHg) (via eChemPortal).
COc1ccc(CC2CC2)cc1 [1-(Cyclopropylmethyl)-4-methoxybenzene] has log VP -2.072 (log10 mmHg) (via eChemPortal).
CCCCCCCCC(C)C=O (configuration not stated) [2-Methyldecanal] has log VP -1.301 (log10 mmHg) (via eChemPortal).
Clc1cc(-c2c(Cl)c(Cl)c(Cl)c(Cl)c2Cl)c(Cl)c(Cl)c1Cl [2,2',3,3',4,4',5,5',6-Nonachlorobiphenyl] has log VP -6.115 (log10 mmHg) (via OCHEM).
c1cc2ccc1CCc1ccc(cc1)CC2 has log VP -5.375 (log10 mmHg) (via eChemPortal).
N#Cc1ccc(Nc2nccc(Cl)n2)cc1 [4-[(4-Chloropyrimidin-2-yl)amino]benzonitrile] has log VP -9.604 (log10 mmHg) (via eChemPortal).
CC(=O)CCCC(C)CCC=C(C)C (configuration not stated) [6,10-Dimethyl-9-undecen-2-one] has log VP -2.347 (log10 mmHg) (via eChemPortal).
CC(COc1ccc(C(C)(C)C)cc1)OS(=O)OCCCl (configuration not stated) [Aramite] has log VP -6.662 (log10 mmHg) (via OCHEM).
CCCCCCCC1CCCC1=O (configuration not stated) [2-Heptylcyclopentanone] has log VP -1.745 (log10 mmHg) (via eChemPortal).
C/C=C/c1ccc(OC)c(OC)c1 [4-trans-Propenylveratrole] has log VP -2.426 (log10 mmHg) (via eChemPortal).
CO[Si](CCCN=C=O)(OC)OC [Silane, (3-isocyanatopropyl)trimethoxy-] has log VP -1.274 (log10 mmHg) (via eChemPortal).
C=CN1CCCC1=O [Vinylpyrrolidone] has log VP -1.006 (log10 mmHg) (via eChemPortal).
O=C([O-])[C@H](O)[C@@H](O)C(=O)[O-].[NH4+].[NH4+] [Diammonium L-(+)-tartrate] has log VP -5.084 (log10 mmHg) (via eChemPortal).
CCCC1CCC(c2ccc(OCC)c(F)c2F)CC1 (configuration not stated) [1-Ethoxy-2,3-difluoro-4-(4-propylcyclohexyl)benzene] has log VP -5.952 (log10 mmHg) (via eChemPortal).
CC(O)c1ccccc1 (configuration not stated) [alpha-Methylbenzyl alcohol] has log VP -1 (log10 mmHg) (via eChemPortal).
C1=CCC(C2OCC3(CO2)COC(C2CC=CCC2)OC3)CC1 (configuration not stated) [3,9-Dicyclohex-3-enyl-2,4,8,10-tetraoxaspiro[5.5]undecane] has log VP -6.627 (log10 mmHg) (via eChemPortal).
Cl.NCC(=O)O [Glycine hydrochloride] has log VP -4.533 (log10 mmHg) (via eChemPortal).
CC(O)COC(=O)O[C@@H]1C[C@H](C)CC[C@H]1C(C)C (stereo partly drawn) has log VP -4.133 (log10 mmHg) (via eChemPortal).
Cc1nn(C)c(Cl)c1C(O)=Nc1cccc2c1C(C)OC2(C)C (configuration not stated) [Furametpyr] has log VP -9.076 (log10 mmHg) (via OCHEM).
CC1CCCCN1CCCOC(=O)c1ccc(Cl)c(Cl)c1 (configuration not stated) [Piperalin] has log VP -7.011 (log10 mmHg) (via OCHEM).
CC(C)[C@H]1OCC[C@]2(C[C@H]3CC[C@]2(C)C3(C)C)O1 has log VP -3.745 (log10 mmHg) (via eChemPortal).
CCOC(=O)C(=Cc1ccc(C=C(C(=O)OCC)C(=O)OCC)cc1)C(=O)OCC has log VP -8.091 (log10 mmHg) (via eChemPortal).
CCCCN(CCCC)C[Si](OCC)(OCC)OCC [N-Butyl-N-[(triethoxysilyl)methyl]butan-1-amine] has log VP -2.119 (log10 mmHg) (via eChemPortal).
CO[Si](CC[Si](OC)(OC)OC)(OC)OC [2,7-Dioxa-3,6-disilaoctane, 3,3,6,6-tetramethoxy-] has log VP -1.924 (log10 mmHg) (via eChemPortal).
CC1=CC(C)OC(C(C)c2ccccc2)C1 (configuration not stated) has log VP -0.678 (log10 mmHg) (via eChemPortal).
Cc1cc(Sc2cc(C)cc(C(C)(C)C)c2O)c(O)c(C(C)(C)C)c1 [6,6'-Di-tert-butyl-2,2'-thiodi-p-cresol] has log VP -5.34 (log10 mmHg) (via eChemPortal).
C=C(C#N)C(=O)OCCOC [2-Propenoic acid, 2-cyano-, 2-methoxyethyl ester] has log VP 1.519 (log10 mmHg) (via eChemPortal).

A selection of 5 entries from above:

{"smiles": "C/C=C/c1ccc(OC)c(OC)c1", "name": "4-trans-Propenylveratrole", "log VP (log10 mmHg)": "-2.426", "via": "eChemPortal"}
{"smiles": "CC(COc1ccc(C(C)(C)C)cc1)OS(=O)OCCCl", "stereo": "configuration not stated", "name": "Aramite", "log VP (log10 mmHg)": "-6.662", "via": "OCHEM"}
{"smiles": "CCCCN(CCCC)C[Si](OCC)(OCC)OCC", "name": "N-Butyl-N-[(triethoxysilyl)methyl]butan-1-amine", "log VP (log10 mmHg)": "-2.119", "via": "eChemPortal"}
{"smiles": "COc1ccc(CC2CC2)cc1", "name": "1-(Cyclopropylmethyl)-4-methoxybenzene", "log VP (log10 mmHg)": "-2.072", "via": "eChemPortal"}
{"smiles": "Cl.NCC(=O)O", "name": "Glycine hydrochloride", "log VP (log10 mmHg)": "-4.533", "via": "eChemPortal"}

Values as listed in the OPERA 2.9 repository of K. Mansouri.